This note sets out measurements from US6399654B1, “Biflavanoids and derivatives thereof as antiviral agents” (priority 1995, dated 2002).

The conditions of the data set: mouse, in vivo, ip, 75 mg/kg/day.

As for `NC(=O)c1ncn([C@@H]2O[C@H](CO)[C@@H](O)[C@H]2O)n1` [Ribavirin, ribavirin, reference compound], the “Toxicity Controls Mean Weight Change” value is -0.5 g. Moreover, where the note is “female, BALB/c”, the “Toxicity Controls Surv/Total” value is reported as 3/3.
